Results: EP3575287A1, “INHIBITORS OF N-ACYLPHOSPHATIDYLETHANOLAMINE PHOSPHOLIPASE D (NAPE-PLD)” (Universiteit Leiden, priority 2018, dated 2019)

Sequences of proteins named here, by UniProt entry; tags and fusion partners are left off. A change or cut given only in a name is not applied to a line headed by its entry.
UniProt Q6IQ20: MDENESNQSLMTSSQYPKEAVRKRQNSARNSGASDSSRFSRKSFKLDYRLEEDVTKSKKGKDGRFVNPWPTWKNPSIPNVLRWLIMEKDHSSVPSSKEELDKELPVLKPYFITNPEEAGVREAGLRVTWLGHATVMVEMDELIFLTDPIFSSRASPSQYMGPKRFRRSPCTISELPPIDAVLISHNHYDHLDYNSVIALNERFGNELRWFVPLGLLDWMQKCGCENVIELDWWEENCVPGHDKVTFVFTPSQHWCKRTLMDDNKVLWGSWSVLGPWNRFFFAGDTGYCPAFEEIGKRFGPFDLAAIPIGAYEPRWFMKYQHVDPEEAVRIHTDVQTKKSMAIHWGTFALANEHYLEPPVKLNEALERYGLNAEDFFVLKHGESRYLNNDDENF

Target: T1, human NAPE-PLD (Homo sapiens, UniProt Q6IQ20)
T1 construct: Full length human cDNA NAPE-PLD was obtained from Natsuo Ueda; made in house; host or cells: HEK293T cells, transient transfection (pcDNA3.1); membrane fraction used
Assay: In vitro NAPE-PLD activity assay
Assay type: biochemical
Settings: membrane protein fraction of HEK293T cells overexpressing human NAPE-PLD; substrate PED6 1 µM; 30 minutes preincubation at 37 °C
Procedure: Full length human cDNA NAPE-PLD was obtained from Natsuo Ueda^1 and cloned into mammalian expression vector pcDNA3.1, containing a C-terminal Flag-tag and genes for ampicillin and neomycin resistance. All plasmids were grown in XL-10 Z-competent cells and prepped (Maxi Prep, Qiagen). Sequence analysis for the confirmation of the sequences was performed at the Leiden Genome Technology Centre.
HEK293T were cultured at 37 °C and 7% CO2 in DMEM (Sigma Aldrich, D6546) with glutamax, penicillin (100 µg/ml), streptomycin (100 µg/ml) and 10% New Born Calf Serum iron supplemented (Hyclone SH30072.03). Cells were passaged twice a week to appropriate confluence.
24 hours before transfection 10^7 cells are seeded on a 15 cm dish. Two hours before transfection medium is refreshed, low volume. Transfection is performed with PEI in a ratio of 3:1 with human NAPE-PLD or Mock pcDNA3.1 Neo, 20 µg per dish. Medium is refreshed after 24 hours and cells are harvested after 72 hours.
Cell pellets are re-suspended in lysis buffer: 20 mM Hepes, 2 mM DTT, 0.25 M sucrose, 1 mM MgCl2, 2.5 U/ml benzonase and incubated 30 minutes on ice. The cytosolic fraction (supernatant) is separated from the membranes by ultra-centrifugation (32000 rpm for 30 minutes 100,000g). The pellet is resuspended in storage buffer: 20 mM Hepes, 2 mM DTT (membrane fraction). […] Enzyme concentrations are determined using a Bradford assay. […]

| Structure (SMILES) | IC50 |
| --- | --- |
| CN(C)c1cc(C(=O)NCC2CC2)nc(N2CCC[C@@H](c3ccccc3)C2)n1 [Example 18, (S)-N-(cyclopropylmethyl)-6-(dimethylamino)-2-(3-phenylpiperidin-1-yl)pyrimidine-4-carboxamide] | 112 nM |
| CN(C)c1cc(C(=O)NCC2CC2)nc(N2CCC[C@H](c3ccccc3)C2)n1 [Example 19, (R)-N-(cyclopropylmethyl)-6-(dimethylamino)-2-(3-phenylpiperidin-1-yl)pyrimidine-4-carboxamide] | 407 nM |
